Values of other authors in patent publication US20210322426A1, “METHODS OF TREATING CANCER WITH PI3K ALPHA INHIBITORS AND METFORMIN” (Genentech, Inc., priority 2018, published 2021).

The chains behind the UniProt entries cited, without tags or fusion partners.
UniProt P03372, whole entry: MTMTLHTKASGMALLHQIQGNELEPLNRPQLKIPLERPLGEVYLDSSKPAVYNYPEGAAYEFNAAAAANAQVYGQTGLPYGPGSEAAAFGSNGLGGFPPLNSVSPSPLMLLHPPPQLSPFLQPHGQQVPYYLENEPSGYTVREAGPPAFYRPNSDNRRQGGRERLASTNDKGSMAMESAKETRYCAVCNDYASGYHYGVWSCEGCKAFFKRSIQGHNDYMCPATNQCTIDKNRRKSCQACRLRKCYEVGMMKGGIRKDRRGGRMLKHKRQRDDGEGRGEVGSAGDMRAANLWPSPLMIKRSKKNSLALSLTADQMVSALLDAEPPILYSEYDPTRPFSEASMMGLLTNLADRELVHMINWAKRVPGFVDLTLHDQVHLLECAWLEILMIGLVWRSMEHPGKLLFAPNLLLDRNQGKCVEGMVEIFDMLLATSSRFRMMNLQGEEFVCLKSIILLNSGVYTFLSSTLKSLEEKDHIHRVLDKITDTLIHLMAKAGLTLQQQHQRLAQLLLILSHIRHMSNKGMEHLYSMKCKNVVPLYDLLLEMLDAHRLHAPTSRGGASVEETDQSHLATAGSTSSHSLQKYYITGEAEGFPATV

Target: ER (Homo sapiens, UniProt P03372)
Conditions: greater than that of tamoxifen; cited from earlier work

C[C@]12CC[C@@H]3c4ccc(O)cc4C[C@@H](CCCCCCCCC[S+]([O-])CCCC(F)(F)C(F)(F)F)[C@H]3[C@@H]1CC[C@@H]2O (stereo partly drawn) [fulvestrant, (7α,17β)-7-{9-[(4,4,5,5,5-pentafluoropentyl)sulfinyl]nonyl}estra-1,3,5(10)-triene-3,17-diol]
affinity for the ER relative to tamoxifen: approximately 100 fold
